The text below walks through data of PMC8457330 (Journal of medicinal chemistry, 2021).

The test system of assay [1] is SARS-CoV-2^WK-521. To be noted: VeroE6 cells, tested at 1, 10 and 100 μM; cited from earlier work.
Assay [2] has as its system SARS-CoV-2^WK-521. Nature of the assay: Immunocytochemistry of SARS-CoV-2-exposed VeroE6 cells. Conditions: for number of SARS-CoV-2^wk-521-infected cells: immunocytochemistry; for infectivity and cytopathic effect of SARS-CoV-2^WK-521: MOI 0.05, 3 days (Figure 2). Background: Damage to the host cells serves as the signal in cytopathic effect assays.

In the case of `O=C(Oc1cncc(Cl)c1)c1cccc2[nH]ccc12` [Compound 1, 5-chloropyridin-3-yl 1H-indole-4-carboxylate], the “infectivity and cytopathic effect of SARS-CoV-2^wk-521” value in assay [1] was “completely blocked the infectivity and cytopathic effect”. Moreover, the “number of SARS-CoV-2^wk-521-infected cells” value (“number” below) is recorded as “significant reduction” in assay [2] (10 μM compound) and “essentially no infected cells” in assay [2] (100 μM compound). The “infectivity and cytopathic effect of SARS-CoV-2^WK-521” value in assay [2] is “potently blocked the infectivity and cytopathic effect”.

`O=C(Oc1cncc(Cl)c1)c1cccc2c1CCN2` [Compound 2, 5-chloropyridin-3-yl indoline-4-carboxylate]: the “number” value is “significant reduction” in assay [2] (10 μM compound) and “essentially no infected cells” in assay [2] (100 μM compound). Moreover, the “infectivity and cytopathic effect of SARS-CoV-2^WK-521” value in assay [2] is “potently blocked the infectivity and cytopathic effect”.

Regarding `CCC(CC)COC(=O)[C@H](C)N[P@](=O)(OC[C@H]1O[C@@](C#N)(c2ccc3c(N)ncnn23)[C@H](O)[C@@H]1O)Oc1ccccc1` [Remdesivir, reference compound], in assay [1], the “infectivity and cytopathic effect of SARS-CoV-2^wk-521” value is “completely blocked the infectivity and cytopathic effect”. In addition, in assay [2] (100 μM compound), the “number” value is recorded as “significantly reduced the number of infected cells”. In addition, the “infectivity and cytopathic effect of SARS-CoV-2^WK-521” value in assay [2] is “potently blocked the infectivity and cytopathic effect”.
